The text below walks through data of article PMC8662641, “Site-Specific Labeling of Endogenous Proteins Using CoLDR Chemistry” (Journal of the American Chemical Society, 2021).

Chains of the proteins cited; added tags and fusions are not shown. Residues count along the entry.
UniProt Q06187, 402-655 limits assumed: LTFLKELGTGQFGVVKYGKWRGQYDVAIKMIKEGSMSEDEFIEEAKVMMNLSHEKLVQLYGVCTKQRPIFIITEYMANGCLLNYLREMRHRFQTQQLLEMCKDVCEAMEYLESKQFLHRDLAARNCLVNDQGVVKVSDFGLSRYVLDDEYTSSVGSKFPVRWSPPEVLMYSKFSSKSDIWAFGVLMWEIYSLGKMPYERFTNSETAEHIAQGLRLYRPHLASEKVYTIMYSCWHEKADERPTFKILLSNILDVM

One test deals with BTK (Homo sapiens, UniProt Q06187). In words: SPR, free BTK flowed over immobilized 1r. In general terms: In SPR one partner is held on a chip, and binding of the other changes the refractive index at the surface.
Another test has as its target BTK-1b (Homo sapiens, UniProt Q06187). In words: SPR, 1b-labeled BTK flowed over immobilized 1r.
For another test, the target named is BTK-ibrutinib (Homo sapiens, UniProt Q06187). In words: SPR, ibrutinib-labeled BTK flowed over immobilized 1r. Particulars: BTK-ibrutinib over immobilized 1r.

pKd: −log10 of the molar value.

As a reminder, the pKd is −log10 of the Kd, conventionally taken in molar units. For the molecule `NCCOCCOCCOCCOCCOCCC(=O)NCCOCCOCCOCCOCCOCCC(=O)N1CCC[C@@H](n2nc(-c3ccc(Oc4ccccc4)cc3)c3c(N)ncnc32)C1`, the negative logarithm of the Kd (pKd) at BTK (free BTK binding immobilized 1r) was 7.82; at BTK (free BTK over immobilized 1r), 7.82; on BTK-1b (BTK-1b binding immobilized 1r) it was 7.74; at BTK-1b (BTK-1b over immobilized 1r) it was 7.73. Also, the figures for the ka at BTK (free BTK over immobilized 1r) and on BTK-1b (BTK-1b over immobilized 1r) were 90400 M⁻¹ s⁻¹ and 176000 M⁻¹ s⁻¹, respectively. Besides, the kd on BTK (free BTK over immobilized 1r) turned out to be 0.001361 s⁻¹; on BTK-1b (BTK-1b over immobilized 1r), 0.003287 s⁻¹. Further, the “binding to 1r” value at BTK-ibrutinib is given as “does not show any binding”.
